In patent publication US11524011B2, “H3K27 demethylase inhibitors in pediatric and juvenile osteoporosis” (THE JOHNS HOPKINS UNIVERSITY, priority 2017, dated 2022):

System: BALB/c mice
[1] = MPS daily for different time periods, vs vehicle

C[C@H]1C[C@@H]2[C@H]([C@@H](O)C[C@@]3(C)[C@H]2CC[C@]3(O)C(=O)CO)[C@@]2(C)C=CC(=O)C=C12 [MPS, methylprednisolone]
numbers of SA-βGal+ cells per mm^2 tissue area in primary spongiosa (MPS daily for 2 weeks, four-week-old mice, vs control): Increased
senescent blood vessel endothelial cells (SA-βGal expression in CD144+ cell population, flow cytometry) (MPS daily for 2 weeks, femoral metaphysis, vs control mice): significantly more
SA-βGal staining in Emcn+ blood vessel endothelial cells in femoral metaphysis sections (MPS daily for 2 weeks, vs control): increased
p16 staining in Emcn+ blood vessel endothelial cells (MPS daily for 2 weeks, vs controls): significant increase
Emcn+ CD31+ H-type vessels: percentage of CD31+Emcn+ cells isolated from femoral metaphysis (flow cytometry) [1]: decreased
blood vessels: Emcn+ CD31+ cells in femoral primary spongiosa (immunofluorescence) [1]: decreased after MPS treatment in a time-dependent manner
